System: SKBR-3
Test: ADCC reporter bioassay (luciferase reporter effector cells), SKBR-3 target cells
Format: cell-based
Conditions: effector:target 3:1, 6 hours induction
Method: The ADCC activity was analyzed by ADCC reporter bioassay complete kit (Promega, G7015) using luciferase reporter cells. The related cell lines MCF7W (OBI-888), SKBR-3 (Herceptin, Perjeta), BxPC3 (Erbitux) and Raji (Rituxan) were selected for the analysis. Cell lines shared with the same procedures. Target cells were seeded at 96-well cell culture plate and incubated overnight at 37° C. in a humidified 5% CO2 incubator. The culture medium was replaced with serial dilution of homogeneous antibody and the corresponding antibody standard in triplicate. In each well, ADCC bioassay effector cells were added. Ratio of effector cell to target cell was 3:1. We performed induction for 6 hours and then added Bio-Glo luciferase assay buffer. After 15 minutes, luminescence (RLU, relative light unit) was determined using microplate reader (SpectraMax L, Molecular Devices, Sunnyvale, CA). The fold change of luminescence induction was calculated by the ratio of relative light unit (RLU) (induced) to RLU (no antibody control). EC50 was determined by plotting x (concentration in μg/mL)-y (the induction of fold change) and fitting the data in a 4PL nonlinear regression model by PRISM 6 Software. Relative potency was estimated by parallel line analysis using Gen5 Microplate Reader and Imager Software (BioTek Instruments).

| Substance | EC50 (ADCC assay) [µg/mL] |
| --- | --- |
| Herceptin: commercial anti-HER2 monoclonal antibody (Roche) [reference compound] | 15.29 |
| Herceptin-G2S2: homogeneous Herceptin bearing sialylated complex type N-glycan (G2S2) at Fc N297 | 5.10 |
